Structures are written as SMILES.

Regarding `CC(=O)O[C@H]1C(=O)[C@@]2(C)[C@H]([C@H](OC(=O)c3ccccc3)[C@]3(O)C[C@H](OC(=O)[C@H](O)[C@@H](NC(=O)c4ccccc4)c4ccccc4)C(C)=C1C3(C)C)[C@]1(OC(C)=O)CO[C@@H]1C[C@@H]2O` [amorphous paclitaxel, paclitaxel], the “first order rate constant of elution” value (porcine serum (37° C.)) is recorded as “about 0.0244 min^−1”. Regarding `CC(=O)O[C@H]1C(=O)[C@@]2(C)[C@H]([C@H](OC(=O)c3ccccc3)[C@]3(O)C[C@H](OC(=O)[C@H](O)[C@@H](NC(=O)c4ccccc4)c4ccccc4)C(C)=C1C3(C)C)[C@]1(OC(C)=O)CO[C@@H]1C[C@@H]2O` [dihydrate paclitaxel, paclitaxel], the “half life of elution” value (pig, serum) is listed as “about 38.5 hours”.

Source of the values: patent US7875284B2, “Methods of manufacturing and modifying taxane coatings for implantable medical devices” (Cook Incorporated, priority 2006, dated 2011).
